Values of other authors as cited in publication PMC3583342 (Clinical pharmacology and therapeutics, 2008).

Conditions: cited from earlier work

CCC(=O)C(CC(C)N(C)C)(c1ccccc1)c1ccccc1 (stereo not shown) [methadone]
decrease in oral racemic methadone plasma Cmax and AUC by ritonavir: 36-38%
